Tested on: RBL-2H3 cells
Assay: β-Hexosaminidase release from RBL-2H3 cells
Format: cell-based
Conditions: HNTX-III analogues at 180 μg/ml, 0.5 h, 37 °C, absorbance 405 nm, control 1.13 ± 0.59, C48/80 positive drug, concentration not given, mean ± SD, n = 3 to 6
Procedure: β-Hexosaminidase release was performed as described ([61]). RBL-2H3 cells were cultured in Dulbecco’s modified Eagle’s medium containing 10% fetal bovine serum in a humidified atmosphere of 5% CO2 at 37 °C. RBL-2H3 cells (2 × 10^5/cell) were washed three times with prewarmed Tyrode’s buffer and pretreated with HNTX-III analogues at 180 μg/ml for 0.5 h at 37 °C in 5% CO2. To determine the total amount of β-hexosaminidase released, Tyrode’s buffer containing 1% (v/v) Triton X-100 was added to three or four wells. […] The enzyme reaction was stopped by the addition of 0.2 M glycine buffer (pH 10.7), and the reaction product was measured at 405 nm. The percentage of degranulation was calculated using the following formula: % β-hexosaminidase release =(absorbance supernatant−absorbance vehicle)/(absorbance Triton X-100−absorbance vehicle)×100

Hainantoxin-III [Compound 1]
Releasing rate of β-hexosaminidase (%): 1.68 ± 0.76%
